Assay: Bioavailability test through biological membrane (U-tube, OD in receiving tube)
Conditions: A360 nm

For Vitamin B-12, the “OD measured as Absorbance across the membrane in receiving tube” value (“OD measured” for short) (after 1 hr) was 0.0250, the “OD measured” value (after 2 hr) was 0.0556 and the “OD measured” value (after 3 hr) was 0.0714. For the same substance, the “OD measured” value (after 4 hr) was 0.1283, the “OD measured” value (after 5 hr) was 0.1370 and the “OD measured” value (after 6 hr) was 0.1595.

From patent publication US6979471B1, “Composition comprising pharmaceutical/nutraceutical agent and a bio-enhancer obtained from Glycyrrhiza glabra” (Council of Scientific and Industrial Research, priority 2000, dated 2005)
